# Data: article PMC7723054
# Some of the results follow.
# T1: LIN28A (human?, UniProt Q9H9Z2 1-209)
# T1 sequence: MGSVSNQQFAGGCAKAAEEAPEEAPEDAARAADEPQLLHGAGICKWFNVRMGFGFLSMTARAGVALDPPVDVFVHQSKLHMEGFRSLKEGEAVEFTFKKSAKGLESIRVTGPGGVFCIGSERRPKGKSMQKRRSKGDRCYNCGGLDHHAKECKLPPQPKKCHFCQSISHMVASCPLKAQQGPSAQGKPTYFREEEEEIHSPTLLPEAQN
# T2: CIRBP (Homo sapiens, UniProt Q14011 1-172)
# T2 sequence: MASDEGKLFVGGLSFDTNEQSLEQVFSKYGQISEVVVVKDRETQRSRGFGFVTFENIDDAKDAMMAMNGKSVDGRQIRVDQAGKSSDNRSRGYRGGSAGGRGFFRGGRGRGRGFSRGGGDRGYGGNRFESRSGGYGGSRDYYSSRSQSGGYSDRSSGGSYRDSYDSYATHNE
# T3: DHX36 (Homo sapiens, UniProt Q9H2U1 1-1008)
# T3 sequence: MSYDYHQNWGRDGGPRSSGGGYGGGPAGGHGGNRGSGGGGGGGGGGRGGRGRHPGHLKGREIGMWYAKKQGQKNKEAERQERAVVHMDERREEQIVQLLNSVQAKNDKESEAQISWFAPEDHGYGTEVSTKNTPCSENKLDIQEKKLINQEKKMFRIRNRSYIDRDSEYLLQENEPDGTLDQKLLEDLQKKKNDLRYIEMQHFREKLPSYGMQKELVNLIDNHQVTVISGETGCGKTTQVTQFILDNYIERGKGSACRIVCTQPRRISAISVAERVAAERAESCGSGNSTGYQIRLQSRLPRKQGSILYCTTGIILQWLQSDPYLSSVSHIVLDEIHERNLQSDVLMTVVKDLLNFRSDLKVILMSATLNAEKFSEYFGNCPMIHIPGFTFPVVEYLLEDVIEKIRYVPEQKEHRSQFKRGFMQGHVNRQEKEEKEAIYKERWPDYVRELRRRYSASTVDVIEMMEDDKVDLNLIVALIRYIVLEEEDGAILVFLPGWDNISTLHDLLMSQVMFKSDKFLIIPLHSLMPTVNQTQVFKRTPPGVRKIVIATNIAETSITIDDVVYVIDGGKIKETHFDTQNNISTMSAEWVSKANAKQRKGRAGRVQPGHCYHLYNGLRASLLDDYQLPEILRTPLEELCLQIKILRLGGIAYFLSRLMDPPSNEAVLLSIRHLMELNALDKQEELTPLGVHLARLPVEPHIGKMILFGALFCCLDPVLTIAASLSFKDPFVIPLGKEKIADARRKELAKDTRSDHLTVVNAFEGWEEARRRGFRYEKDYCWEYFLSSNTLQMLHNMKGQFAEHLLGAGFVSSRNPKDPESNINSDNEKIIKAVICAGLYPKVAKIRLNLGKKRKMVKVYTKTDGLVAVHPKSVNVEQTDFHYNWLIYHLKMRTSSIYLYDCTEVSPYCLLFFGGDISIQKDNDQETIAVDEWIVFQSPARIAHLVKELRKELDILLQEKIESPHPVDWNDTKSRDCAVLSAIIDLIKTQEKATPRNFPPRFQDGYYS
# B1: hsa-mir-939 (structured_RNA)
# RNA: GGGACAUAGGGAUCGCAUUCCGAUUAAUGGUGUACGAAGUUUCAGCGGGGGUGGCCGGGGCUGACCCUGCUGAAGCUUCGUGCAC
# B2: hsa-mir-487a (structured_RNA)
# RNA: GGGAUGAUCCUGUACUGCUAUUUGCGGUGGUGUACGAAGUUUCAGCGUUCGCUUAAUUUAUGACGAAUCGCUGAAGCUUCGUGCAC
# B3: hsa-mir-1250 (structured_RNA)
# RNA: GGGAAGGACACAUAGUAAGUCCGCCAUCGGUGUACGAAGUUUCAGCUGUGGCCUUUUUGCCUUUUCUAAAGGCCACAUGCUGAAGCUUCGUGCAC
# B4: hsa-mir-4438 (structured_RNA)
# RNA: GGGAAAUCGAACGGUGAAGCUACAUAGUGGUGUACGAAGUUUCAGCUGUGCCUUGCCUUUCCUUUGGCACAGCUGAAGCUUCGUGCAC
# B5: hsa-mir-26b (structured_RNA)
# RNA: GGGAGAGUCAGCUCCCGUCAUCUUGUCGGGUGUACGAAGUUUCAGCUAGGUUGUGUGCUGUCCAGCCUGGCUGAAGCUUCGUGCAC
# B6: hsa-mir-548ak (structured_RNA)
# RNA: GGGAACAACACUGGCGCCGGAAAACUCUGGUGUACGAAGUUUCAGCUUGAGAAGUAAUUGAGCUGAAGCUUCGUGCAC
# B7: hsa-mir-6828 (structured_RNA)
# RNA: GGGAACUCGGUAGGCUCGUGAAUCCAUCGGUGUACGAAGUUUCAGCCUGUGGUCUAACCUUUCCCAUCUGCUGAAGCUUCGUGCAC
# B8: hsa-mir-3155a (structured_RNA)
# RNA: GGGAAGGGACCCUCAAUGCCUACGAAGAGGUGUACGAAGUUUCAGCCUGGGGAGCCGGACAGCUCCCUUCCCAGGCUGAAGCUUCGUGCAC
# B9: hsa-mir-654 (structured_RNA)
# RNA: GGGAAGAACGUCAUGUUGUCGAGACUCCGGUGUACGAAGUUUCAGCCAUGUGCUGAGUUCGUGCCAUAUGGCUGAAGCUUCGUGCAC
# B10: hsa-mir-548w (structured_RNA)
# RNA: GGGAAGGGAUAAGUAUCUCGCCAUUCCGGGUGUACGAAGUUUCAGCGCCUUUCAACAUAAUGGCGCUGAAGCUUCGUGCAC
# B11: hsa-mir-3938 (structured_RNA)
# RNA: GGGAAACCGCAGAAACCGAUAAAGUGGCGGUGUACGAAGUUUCAGCAAUUUUUUUUUAAUUUAAAAAAUUGCUGAAGCUUCGUGCAC
# B12: hsa-mir-933 (structured_RNA)
# RNA: GGGAAGACGUCGGCCCAUUCGUCUUCAGGGUGUACGAAGUUUCAGCCGCGCGUCGAGUCAGCCGUGUGGCUGAAGCUUCGUGCAC
# B13: hsa-mir-5095 (structured_RNA)
# RNA: GGGACAUAGGUUUAGACUGUAGUGGCAGGGUGUACGAAGUUUCAGCCGCGCCCGGCCUAACUUUUAAGAAACGUCGGCCCGGGAGCGGCUGAAGCUUCGUGCAC
# B14: hsa-mir-3911 (structured_RNA)
# RNA: GGGAUCUUAUGUCCCACUAGCGGCAACCGGUGUACGAAGUUUCAGCGCAGAGAAGACAGUGAGCUUGCCAGUUCUGGUUUCCAACACUUCCUUUCCUGCGGCUGAAGCUUCGUGCAC
# B15: hsa-mir-574 (structured_RNA)
# RNA: GGGAGAGACGUAACACUUGCCGCGUGAGGGUGUACGAAGUUUCAGCUGUGUGUCGCUCCGGGUCCACGGCUGAAGCUUCGUGCAC
# B16: hsa-mir-1305 (structured_RNA)
# RNA: GGGAACGGUAUCUGCAUAUUCUCACGAGGGUGUACGAAGUUUCAGCAUGUUUAUUGUAAAGAUACUUUGCUGAAGCUUCGUGCAC
# B17: hsa-mir-1302-4 (structured_RNA)
# RNA: GGGCAGGCCGAGCUUUAUUAGGAUAACAGGUGUACGAAGUUUCAGCCCAUGCAACAUUUGGGCUGAAGCUUCGUGCAC
# B18: hsa-mir-3143 (structured_RNA)
# RNA: GGGAAUCGUCUAGGGCCAAUACGUCAAUGGUGUACGAAGUUUCAGCUUCGCGGUUGGGCUGCUGAAGCUUCGUGCAC
# B19: hsa-mir-548l (structured_RNA)
# RNA: GGGAAUAGAAGCGUUUAGACGAACUGCUGGUGUACGAAGUUUCAGCUGUCGUAGAAAGUAAUGGCAGCUGAAGCUUCGUGCAC
# B20: hsa-mir-147b (structured_RNA)
# RNA: GGGAAAGUCCGGCCAAAGCAUCGGUAAGGGUGUACGAAGUUUCAGCAUUCUGGACACCAGGCUGAAGCUUCGUGCAC
# B21: hsa-mir-6767 (structured_RNA)
# RNA: GGGACCCAAACACGGCAAAUCUUCACUCGGUGUACGAAGUUUCAGCAUGGAGAACGCCCCCACCAGUUCCCACGCUGAAGCUUCGUGCAC
# B22: hsa-mir-219b (structured_RNA)
# RNA: GGGAAAGGGUGCCGAACCUAGACAUAAGGGUGUACGAAGUUUCAGCUUCUCGGUUGGCCGCAGACUCGUACAAGAAGCUGAAGCUUCGUGCAC
# B23: hsa-mir-3662 (structured_RNA)
# RNA: GGGACGCCUUCCACUCACAACUGUGCUAGGUGUACGAAGUUUCAGCUCUCAAUCCAUUCAUAUUGAAAGCUGAAGCUUCGUGCAC
# B24: hsa-mir-4651 (structured_RNA)
# RNA: GGGAAAAGCACAGUGGGUUGCUAAUCUUGGUGUACGAAGUUUCAGCGGGCCCCAAGACUCGGGGUUUGCUGAAGCUUCGUGCAC
# B25: hsa-mir-3926-2 (structured_RNA)
# RNA: GGGACAAUUAACGCGGCUUGGCUACAUUGGUGUACGAAGUUUCAGCGAGACGCUUUUAAAGUCUCGCUGAAGCUUCGUGCAC
# B26: hsa-mir-4448 (structured_RNA)
# RNA: GGGACUCCCACACUGAGUCGUCGUGAUUGGUGUACGAAGUUUCAGCAGCCUUCUAUUAUGCCCAGACAGGGCCACCAGAGGGCUGCUGAAGCUUCGUGCAC
# Target: T1, LIN28A
# Test: FOREST: bead pull-down of RNA structure library v1, barcode microarray; U1A/LIN28A: 20 mM HEPES pH 7.5, 80 mM KCl, 20 mM NaCl, 10% glycerol, 2 mM DTT, 0.1 ug/uL BSA, 4 C; BG4/CIRBP/DHX36: 10 mM Tris-HCl pH 7.5, 100 mM KCl (or LiCl),; high values mean tight binding
row,Binder,binding signal [z-score]
1,B1,-0.231
2,B2,-0.274
3,B3,-0.252
4,B4,-0.268
5,B5,-0.26
6,B6,-0.25
7,B7,-0.228
8,B8,-0.244
9,B9,-0.219
10,B10,-0.219
11,B11,-0.275
12,B12,-0.274
13,B13,-0.232
14,B14,-0.269
15,B15,-0.262
16,B16,-0.254
17,B17,-0.229
18,B18,-0.233
19,B19,-0.238
20,B20,-0.271
21,B21,-0.269
22,B22,-0.252
23,B23,-0.25
24,B24,-0.249
25,B25,-0.273
26,B26,-0.219

# Target: T2, CIRBP
# Test: as above
row,Binder,binding signal [z-score]
1,B1,-0.85
2,B2,-0.862
3,B3,0.186
4,B4,0.0269
5,B5,-1.15
6,B6,-0.245
7,B7,0.238
8,B8,-0.12
9,B9,-1.1
10,B10,-1.17
11,B11,-0.572
12,B12,-0.605
13,B13,0.366
14,B14,-1.11
15,B15,-0.523
16,B16,0.187
17,B17,-0.187
18,B18,-0.224
19,B19,-0.729
20,B20,0.734
21,B21,-0.711
22,B22,0.628
23,B23,-0.231
24,B24,0.732
25,B25,1.01
26,B26,0.0457

# Target: T3, DHX36
# Test: as above
row,Binder,binding signal [z-score]
1,B1,2.27
2,B2,-1.17
3,B3,-0.162
4,B4,-0.253
5,B5,1.09
6,B6,0.00866
7,B7,-1.04
8,B8,0.137
9,B9,0.722
10,B10,-0.901
11,B11,-0.175
12,B12,0.0895
13,B13,0.533
14,B14,-0.734
15,B15,0.826
16,B16,-0.198
17,B17,-0.188
18,B18,-0.0784
19,B19,-0.37
20,B20,-0.652
21,B21,-0.681
22,B22,-0.0693
23,B23,-0.0393
24,B24,0.48
25,B25,-0.0895
26,B26,-0.47
